Reference: PubChem BioAssay AID652031 (The Scripps Research Institute Molecular Screening Center, 2013)
The entries are a selection whose mix differs from that of the whole data set. Active and inactive are the calls of the source. Rule as the data show it: active = inhibition above about 50%; inactive = the rest.

The chains behind the UniProt entries cited, without tags or fusion partners.
UniProt P41145, whole entry: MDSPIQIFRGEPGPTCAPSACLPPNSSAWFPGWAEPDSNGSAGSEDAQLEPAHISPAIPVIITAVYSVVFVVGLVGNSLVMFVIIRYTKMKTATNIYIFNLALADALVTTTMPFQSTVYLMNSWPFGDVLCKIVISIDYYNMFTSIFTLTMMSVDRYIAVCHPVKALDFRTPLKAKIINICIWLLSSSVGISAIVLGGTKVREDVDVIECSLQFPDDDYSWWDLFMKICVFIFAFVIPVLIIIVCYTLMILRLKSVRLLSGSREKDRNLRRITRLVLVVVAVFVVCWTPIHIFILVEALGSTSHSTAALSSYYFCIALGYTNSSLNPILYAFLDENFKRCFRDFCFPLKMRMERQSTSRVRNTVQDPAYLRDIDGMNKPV

Each compound was assayed against Kappa-type opioid receptor (Homo sapiens) (UniProt P41145) (assay: antagonists of human kappa opioid receptor OPRK1, Maybridge library (AID 652031)). Conditions: OPRK1 cells, antagonist mode, fluorescence readout; at 9 µM; active compounds read high.

| Compound | inhibition |
| --- | --- |
| O=[N+]([O-])C1([N+](=O)[O-])COCOC1 | inactive: -8.2% |
